Experimental data reported in ChEMBL document CHEMBL1125942, “A potent, simple derivative of an analog of the CC-1065 alkylation subunit” (Bioorg Med Chem Lett, 1991).
Values belong to the compound of their own block, whether it stands above or below them. Activity calls are given as the source filed them. No cut-off for these calls is given here.

Assays:
[1] = Relative intensity of alkylation at the high affinity alkylation site [5-d(AATAB)-3) within w794 DNA (4C. 24 h) determined using a scanning densitometer NA - No alkylation observed at 10e-1 M concentration.
[2] = Relative intensity of alkylation at the high affinity alkylation site [5-d(AATAB)-3) within w794 DNA ( 37 C. 24 h) determined using a scanning densitometer NA - No alkylation observed at 10e-1 M concentration.
[3] = Relative intensity of alkylation at the high affinity alkylation site [5-d(AATAB)-3) within w794 DNA (37C. 24 h) determined using a scanning densitometer; 0.1-0.01
[4] = Relative intensity of alkylation at the high affinity alkylation site [5-d(AATAB)-3) within w794 DNA (4C. 24 h) determined using a scanning densitometer; 0.01-0.001
[5] = Relative intensity of alkylation at the high affinity alkylation site [5-d(AATAB)-3) within w794 DNA (4C or 37 C. 24 h) determined using a scanning densitometer; NA - No alkylation observed at 10e-1 M concentration.
[6] = Relative intensity of alkylation at the high affinity alkylation site [5-d(AATAB)-3) within w794 DNA (4C or 37 C. 24 h) determined using a scanning densitometer.
[7] = Relative intensity of alkylation at the high affinity alkylation site [5-d(AATAB)-3) within w794 DNA (37C, 24 h) determined using a scanning densitometer.
[8] = Relative intensity of alkylation at the high affinity alkylation site [5-d(AATAB)-3) within w794 DNA (4C, 24 h) determined using a scanning densitometer.
[9] = Relative intensity of alkylation at the high affinity alkylation site [5-d(AATAB)-3) within w794 DNA ( 37 C. 24 h) determined using a scanning densitometer.
[10] = Relative intensity of alkylation at the high affinity alkylation site [5-d(AATAB)-3) within w794 DNA (4C. 24 h) determined using a scanning densitometer.

Relative intensity [1]: inactive | Relative intensity [2]: inactive
SMILES: OC1=CC2=NCC3CC23c2ccccc21 (racemic)

Relative intensity [3]: 0.1 | Relative intensity [4]: 0.01
SMILES: CC(C)(C)OC(=O)NNC(=O)N1CC(CCl)c2c1cc(O)c1ccccc21 (racemic)

Relative intensity [5]: inactive | Relative intensity [6]: 0.001
SMILES: CC(C)(C)OC(=O)N1CC2CC23C1=CC(=O)c1ccccc13 (racemic)

The remaining lines, values behind:

SMILES: Cl.NNC(=O)N1CC(CCl)c2c1cc(O)c1ccccc21 (racemic)
Relative intensity [7]: 1 | Relative intensity [8]: 0.1

SMILES: COc1c(O)c2c(c3cc(C(=O)N4CCc5c4c(O)c(OC)c4[nH]c(C(=O)N6C[C@H]7C[C@@]78C6=CC(=O)c6[nH]cc(C)c68)cc54)[nH]c13)CCN2C(N)=O [(+)-CC-1065]
Relative intensity [9]: 100 | Relative intensity [10]: 100
